In patent publication US20250241894A1, “TREATMENT OF MENTAL DISORDERS” (GH RESEARCH IRELAND LIMITED, priority 2022, published 2025):

Key:
[1] = system: human hepatocytes; assay: Metabolism identification study in human hepatocytes; details: 5-MeO-DMT free base 10 μM, up to 120 minutes
Description: For incubations with cryopreserved hepatocytes, the 2 mM stock solution was diluted with Leibovitz L-15 medium to a concentration of 20 μM or 2 μM. An aliquot (250 μL) of the 20 μM and 2 μM test substance formulations was added to each hepatocyte incubation sample (250 μL), as appropriate, so that the final test substance concentration in the incubations was 10 μM or 1 μM, respectively, and incubations contained less than 1% (v/v) solvent.
Incubations were performed at ca. 37° C. in a shaking water bath (total incubation volume 0.5 mL). For 1 μM, incubations were terminated after 0, 5, 10, 20, 30, 60 and 120 minutes, by the addition of ice-cold acetonitrile (0.5 mL).
The samples were vortex mixed and centrifuged at ca 13,000 rpm for 10 minutes at room temperature. […]
Prior to sample analysis a 100 μL aliquot of each sample was evaporated to near dryness under a steady stream of nitrogen at room temperature, and subsequently reconstituted in 50 μL of mobile phase A (0.1% formic acid in water). Each sample (0, 30 and 120-minute, 10 μM) was analysed using accurate mass LC-MS to determine relative levels of parent compound at each time-point, and determine the profile of metabolites formed. Appropriate blank and control samples were also analysed. The 10 and 60-minute, 10 μM incubation samples were not analysed and were stored at −80° C. […]

[2] = system: human hepatocytes; assay: Metabolic stability in Hμrel human hepatocyte co-culture assay

Substance: 5-Methoxyindole acetic acid [5-MIAA]
- Relative Proportion of compounds identified [1]: 61%
- Relative LC/MS peak area ([2]; 1 μM Hepatocytes, 1 h): 98%
- Relative LC/MS peak area ([2]; 1 μM Hepatocytes, 2 h): 100%
- Relative LC/MS peak area ([2]; 1 μM Hepatocytes, 4 h): 99%
- Relative LC/MS peak area ([2]; 1 μM Hepatocytes, 8 h): 95%
- Relative LC/MS peak area ([2]; 1 μM Hepatocytes, 24 h): 99%
- Relative LC/MS peak area ([2]; 1 μM Hepatocytes, 48 h): 88%
- Relative LC/MS peak area ([2]; 1 μM Hepatocytes, 72 h): 82%
- Relative LC/MS peak area ([2]; 1 μM Stromal cells, 4 h): 103%
- Relative LC/MS peak area ([2]; 1 μM Stromal cells, 8 h): 107%
- Relative LC/MS peak area ([2]; 1 μM Stromal cells, 24 h): 108%
- Relative LC/MS peak area ([2]; 1 μM Stromal cells, 48 h): 111%
- Relative LC/MS peak area ([2]; 1 μM Stromal cells, 72 h): 135%
- Relative LC/MS peak area ([2]; 10 μM Hepatocytes, 1 h): 97%
- Relative LC/MS peak area ([2]; 10 μM Hepatocytes, 2 h): 100%
- Relative LC/MS peak area ([2]; 10 μM Hepatocytes, 4 h): 103%
- Relative LC/MS peak area ([2]; 10 μM Hepatocytes, 8 h): 96%
- Relative LC/MS peak area ([2]; 10 μM Hepatocytes, 24 h): 96%
- Relative LC/MS peak area ([2]; 10 μM Hepatocytes, 48 h): 86%
- Relative LC/MS peak area ([2]; 10 μM Hepatocytes, 72 h): 75%
- Relative LC/MS peak area ([2]; 10 μM Stromal cells, 4 h): 101%
- Relative LC/MS peak area ([2]; 10 μM Stromal cells, 8 h): 106%
- Relative LC/MS peak area ([2]; 10 μM Stromal cells, 24 h): 97%
- Relative LC/MS peak area ([2]; 10 μM Stromal cells, 48 h): 103%
- Relative LC/MS peak area ([2]; 10 μM Stromal cells, 72 h): 115%
